Target: Type-1 angiotensin II receptor (Oryctolagus cuniculus) (UniProt P34976)
Experiment: Affinity for Angiotensin II receptor, type 1 as antagonism of angII contractile effect in rabbit isolated thoracic aorta
Format: functional, tissue-based

The chains behind the UniProt entries cited, without tags or fusion partners.
UniProt P34976, whole entry: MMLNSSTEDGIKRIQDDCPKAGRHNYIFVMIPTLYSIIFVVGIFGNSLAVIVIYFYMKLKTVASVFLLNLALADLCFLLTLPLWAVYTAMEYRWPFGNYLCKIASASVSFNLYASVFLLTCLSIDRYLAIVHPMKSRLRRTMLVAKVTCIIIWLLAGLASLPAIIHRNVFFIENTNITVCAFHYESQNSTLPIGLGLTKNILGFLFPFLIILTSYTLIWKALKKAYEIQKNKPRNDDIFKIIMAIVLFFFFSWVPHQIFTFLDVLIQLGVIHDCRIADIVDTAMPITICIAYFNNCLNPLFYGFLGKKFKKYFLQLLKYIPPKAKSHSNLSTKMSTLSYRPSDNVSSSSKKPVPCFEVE

## CCCCc1nc(Cl)c(C(=O)O)n1Cc1ccc2oc(-c3ccccc3-c3nnn[nH]3)c(Br)c2c1
  pKB: 9.8

Reference: ChEMBL document CHEMBL1127120, “Benzofuran based angiotensi II antagonists related to GR117289: Part II; amino acid amides” (Bioorg Med Chem Lett, 1993)
